Molecules are shown by their SMILES.

Chains of the proteins cited; added tags and fusions are not shown. Lines headed by an entry give the natural chain unless they say otherwise; changes in a name come on top.
UniProt Q9Y572: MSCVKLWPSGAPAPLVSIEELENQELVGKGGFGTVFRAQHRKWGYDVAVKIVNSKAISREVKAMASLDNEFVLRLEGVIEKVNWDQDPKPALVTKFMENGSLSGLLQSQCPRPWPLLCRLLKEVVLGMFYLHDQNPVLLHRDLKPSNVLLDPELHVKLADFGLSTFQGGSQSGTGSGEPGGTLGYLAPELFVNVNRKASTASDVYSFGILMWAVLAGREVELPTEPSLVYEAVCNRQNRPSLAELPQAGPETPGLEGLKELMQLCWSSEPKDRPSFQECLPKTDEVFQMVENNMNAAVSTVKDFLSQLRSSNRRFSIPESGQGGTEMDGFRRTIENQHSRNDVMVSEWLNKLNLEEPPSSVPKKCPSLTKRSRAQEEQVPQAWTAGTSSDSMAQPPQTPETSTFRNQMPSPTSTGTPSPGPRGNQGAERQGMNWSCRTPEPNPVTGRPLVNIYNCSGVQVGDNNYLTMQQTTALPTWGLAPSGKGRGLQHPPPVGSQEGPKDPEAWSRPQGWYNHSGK

Holding throughout (conditions): equilibrium dissociation constant
One assay concerns the target T1, MLKL (full length) (Homo sapiens, UniProt Q8NB16).
T1 construct: purchased DiscoverX (KINOMEscan service); host or cells: E. coli BL21-derived host (T7 phage) or HEK-293
T1 sequence (Q8NB16 1-471): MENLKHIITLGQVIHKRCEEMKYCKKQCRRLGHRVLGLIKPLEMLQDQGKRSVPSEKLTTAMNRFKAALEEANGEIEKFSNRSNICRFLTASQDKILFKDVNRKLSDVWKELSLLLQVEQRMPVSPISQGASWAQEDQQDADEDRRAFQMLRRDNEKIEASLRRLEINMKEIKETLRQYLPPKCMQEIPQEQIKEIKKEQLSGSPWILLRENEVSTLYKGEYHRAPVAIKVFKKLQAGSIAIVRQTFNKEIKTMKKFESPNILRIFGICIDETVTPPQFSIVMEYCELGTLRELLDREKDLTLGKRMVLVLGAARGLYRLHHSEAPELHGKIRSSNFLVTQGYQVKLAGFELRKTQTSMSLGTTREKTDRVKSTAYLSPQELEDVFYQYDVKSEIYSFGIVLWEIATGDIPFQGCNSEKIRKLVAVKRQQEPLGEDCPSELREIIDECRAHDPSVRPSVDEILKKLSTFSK
Kind of assay: KINOMEscan binding affinity assay, MLKL.

The target in another assay is T2, RIP1 (Homo sapiens, UniProt Q13546).
T2 construct: purchased DiscoverX (KINOMEscan service); host or cells: E. coli BL21-derived host (T7 phage) or HEK-293
T2 sequence (Q13546 1-671): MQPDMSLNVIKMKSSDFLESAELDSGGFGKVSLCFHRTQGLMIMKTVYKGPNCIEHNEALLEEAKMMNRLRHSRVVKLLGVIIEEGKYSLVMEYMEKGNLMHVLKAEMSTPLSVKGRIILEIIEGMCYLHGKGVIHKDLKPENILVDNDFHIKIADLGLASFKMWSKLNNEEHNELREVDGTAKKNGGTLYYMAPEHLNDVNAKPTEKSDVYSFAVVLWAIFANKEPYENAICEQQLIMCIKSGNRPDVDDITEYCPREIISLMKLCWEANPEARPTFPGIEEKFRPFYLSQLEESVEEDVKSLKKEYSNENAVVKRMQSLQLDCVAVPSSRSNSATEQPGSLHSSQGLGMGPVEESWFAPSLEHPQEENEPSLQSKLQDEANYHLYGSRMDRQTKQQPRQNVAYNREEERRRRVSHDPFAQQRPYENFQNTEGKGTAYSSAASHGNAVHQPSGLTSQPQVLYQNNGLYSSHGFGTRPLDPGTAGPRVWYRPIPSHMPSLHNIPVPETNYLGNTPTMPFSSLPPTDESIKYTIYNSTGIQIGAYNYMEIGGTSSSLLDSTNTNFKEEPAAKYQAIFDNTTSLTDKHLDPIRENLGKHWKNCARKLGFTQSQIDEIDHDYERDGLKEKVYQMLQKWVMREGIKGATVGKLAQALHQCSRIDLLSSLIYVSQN
Briefly: KINOMEscan binding affinity assay, RIP1.

The target in another assay is T3, RIP3 (Homo sapiens, UniProt Q9Y572).
T3 construct: purchased DiscoverX (KINOMEscan service); host or cells: E. coli BL21-derived host (T7 phage) or HEK-293
Kind of assay: KINOMEscan binding affinity assay, RIP3.

As a reminder, the Kd is the equilibrium constant for the complex coming apart. `NC(=O)c1c(-c2ccc(Nc3c(N4CCCCC4)c(=O)c3=O)cc2)n[nH]c1Nc1ccccn1` [Compound 119, 3-(4-((3,4-dioxo-2-(piperidin-1-yl)cyclobut-1-en-1-yl)amino)phenyl)-5-(pyridin-2-ylamino)-1H-pyrazole-4-carboxamide]: the Kd on MLKL (full length), on RIP1 and at RIP3 was above 1 µM throughout.

For `CNC(C(=O)Nc1ccc(-c2n[nH]c(Nc3ccccn3)c2C(N)=O)cc1)c1ccccc1` (stereo not drawn) [Compound 33, 3-(4-(2-(methylamino)-2-phenylacetamido)phenyl)-5-(pyridin-2-ylamino)-1H-pyrazole-4-carboxamide], the equilibrium dissociation constant (Kd) at MLKL (full length) is 0.1 to 1 µM; on RIP1 it was above 1 µM; at RIP3 it was above 1 µM.

For `NC(=O)c1c(-c2ccc(NC(=O)N3CCc4ccc(C(F)(F)F)cc4C3)cc2)n[nH]c1Nc1cnccn1` [Compound 99, N-(4-(4-carbamoyl-5-(pyrazin-2-ylamino)-1H-pyrazol-3-yl)phenyl)-7-(trifluoromethyl)-3.4-dihydroisoquinoline-2(1H)-carboxamide], the figures for the Kd at MLKL (full length), on RIP1 and at RIP3 were below 0.1 µM, 0.1 to 1 µM and above 1 µM, respectively.

Turning to `NC(=O)c1c(-c2ccc(NC(=O)Cc3ccccc3)cc2)n[nH]c1Nc1nc(Cl)ccc1F` [Compound 41, 5-((6-chloro-3-fluoropyridin-2-yl)amino)-3-(4-(2-phenyl-acetamido)phenyl)-1H-pyrazole-4-carboxamide], the dissociation constant (Kd) on MLKL (full length), on RIP1 and on RIP3 was above 1 µM throughout.

`COc1cc(Nc2[nH]nc(-c3ccc(NC(=O)N4CCCC(c5ccccc5)C4)cc3)c2C(N)=O)ccn1` (stereo not drawn) [Compound 59, N-(4-(4-carbamoyl-5-((2-methoxypyridin-4-yl)amino)-1H-pyrazol-3-yl)phenyl)-3-phenylpiperidine-1-carboxamide]: the values for the Kd on MLKL (full length), at RIP1 and at RIP3 were below 0.1 µM, 0.1 to 1 µM and above 1 µM, respectively.

In the case of `NC(=O)c1c(-c2ccc(NC(=O)N3Cc4ccccc4C3)cc2)n[nH]c1Nc1cnccn1` [Compound 102, N-(4-(4-carbamoyl-5-(pyrazin-2-ylamino)-1H-pyrazol-3-yl)phenyl)isoindoline-2-carboxamide], the Kd on MLKL (full length) is below 0.1 µM; on RIP1, above 1 µM; at RIP3, above 1 µM.

As for `COc1ccc(CC(=O)Nc2ccc(-c3n[nH]c(Nc4cnccn4)c3C(N)=O)cc2)cc1` [Compound 31, 3-(4-(2-(4-methoxyphenyl)acetamido)phenyl)-5-(pyrazin-2-ylamino)-1H-pyrazole-4-carboxamide], the Kd on MLKL (full length) is below 0.1 µM; at RIP1, above 1 µM; at RIP3, above 1 µM.

Take `COc1cc(Nc2[nH]nc(-c3ccc(NC(=O)N4CCC[C@@H](c5ccccc5)C4)cc3)c2C(N)=O)ccn1` [Compound 60, (S)-N-(4-(4-carbamoyl-5-((2-methoxypyridin-4-yl)amino)-1H-pyrazol-3-yl)phenyl)-3-phenylpiperidine-1-carboxamide]: the Kd was below 0.1 µM at MLKL (full length), 0.1 to 1 µM on RIP1 and above 1 µM on RIP3.

Turning to `NC(=O)c1c(-c2ccc(NC(=O)N3CCCC(c4cccc(C(F)(F)F)c4)C3)cc2)n[nH]c1Nc1cnccn1` (stereo not drawn) [Compound 98, N-(4-(4-carbamoyl-5-(pyrazin-2-ylamino)-1H-pyrazol-3-yl)phenyl)-3-(3-(trifluoromethyl)phenyl)piperidine-1-carboxamide], the figures for the Kd at MLKL (full length), at RIP1 and on RIP3 were below 0.1 µM, below 0.1 µM and above 1 µM, respectively.

In the case of `COc1cc(Nc2[nH]nc(-c3ccc(NC(=O)N4CCc5ccc(C(F)(F)F)cc5C4)cc3)c2C(N)=O)ccn1` [Compound 56], the Kd was below 0.1 µM at MLKL (full length), 0.1 to 1 µM at RIP1 and above 1 µM at RIP3.

`NC(=O)c1c(-c2ccc(NC(=O)N3CCc4ccccc4C3)cc2)n[nH]c1Nc1cnccn1` [Compound 101, N-(4-{4-carbamoyl-5-[(pyrazin-2-yl)amino]-1H-pyrazol-3-yl}phenyl)-1,2,3,4-tetrahydroisoquinoline-2-carboxamide]: the dissociation constant (Kd) at MLKL (full length) is below 0.1 µM; on RIP1, above 1 µM; at RIP3, above 1 µM.

For the origin of these results see patent US20230227428A1 (Anaxis Pharma Pty Ltd, priority 2020, published 2023).
